Protein sequences, listed by entry. Tags and fused reporters are not part of them.
UniProt Q01959, whole entry: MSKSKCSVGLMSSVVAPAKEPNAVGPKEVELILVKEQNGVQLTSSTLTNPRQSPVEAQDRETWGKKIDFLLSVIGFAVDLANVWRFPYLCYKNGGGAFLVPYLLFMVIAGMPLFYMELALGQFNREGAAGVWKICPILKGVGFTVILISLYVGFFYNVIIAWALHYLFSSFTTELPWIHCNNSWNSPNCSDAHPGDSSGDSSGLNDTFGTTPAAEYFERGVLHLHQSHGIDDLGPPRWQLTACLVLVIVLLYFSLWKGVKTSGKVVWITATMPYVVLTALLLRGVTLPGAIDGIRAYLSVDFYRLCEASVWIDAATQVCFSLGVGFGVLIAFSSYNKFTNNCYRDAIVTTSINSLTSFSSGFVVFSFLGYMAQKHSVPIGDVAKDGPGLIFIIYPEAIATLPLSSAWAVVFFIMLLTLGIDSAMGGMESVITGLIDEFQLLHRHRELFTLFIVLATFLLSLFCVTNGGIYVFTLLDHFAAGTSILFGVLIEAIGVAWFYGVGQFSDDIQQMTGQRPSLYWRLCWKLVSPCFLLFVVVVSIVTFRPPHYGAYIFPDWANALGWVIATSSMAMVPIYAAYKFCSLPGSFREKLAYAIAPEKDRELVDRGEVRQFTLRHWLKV

In patent US10577368B2 (The United States of America, as represented by the …, priority 2013, dated 2020):

Tests used:
[1] = tested on: muscarinic, adrenergic, dopamine, GABA, histamine, opiate, serotonin receptors and transporters; assay: Off-target binding panel (receptors and transporters of Table 5); settings: 10 μM
human DAT = human DAT (Homo sapiens (Human), UniProt Q01959); assay: Radioligand ([3H]WIN35428) binding at the dopamine transporter; settings: compound at 10 μM
[2] = tested on: chronic constriction injury model of neuropathic pain; assay: CCI model of neuropathic pain, reversal of mechano-allodynia; assay type: in vivo; settings: 3 μmol/kg p.o., mice; for Max. effect Emax (% ± SEM) / Time of peak protection: ipsilateral hind paw

| Compound | Interactions at other receptors of the off-target panel [1] | Enhancement of radioligand binding at the dopamine transporter (human DAT) [×] | Effect at 3 h (% ± SEM) [2] [%] | Max. effect Emax (% ± SEM) [2] [%] | Time of peak protection [2] [h] |
| --- | --- | --- | --- | --- | --- |
| CNC(=O)[C@@]12C[C@@H]1[C@@H](n1cnc3c(NC)nc(C#Cc4ccc(F)c(F)c4)nc31)[C@H](O)[C@@H]2O | No interactions at other receptors | 7 |  |  |  |
| CCNc1nc(-n2cc(-c3ccc(Cl)s3)nn2)nc2c1ncn2C1C(O)C(O)C2(C(=O)NC)CC12 (centres unmarked) |  |  | 8 ± 8 | 89 ± 11 | 1 |
| CNC(=O)[C@@]12C[C@@H]1[C@@H](n1cnc3c(NC)nc(-n4cc(-c5ccc(Cl)s5)nn4)nc31)[C@H](O)[C@@H]2O |  |  | 8 ± 7 | 67 ± 19 | 1 |
